Assay [1] concerns the target Myeloid Cell Leukemia 1 (Mcl-1) (Homo sapiens, UniProt Q07820). Nature of the assay: Terbium labeled Mcl-1 HTRF binding assay with Cy5-labeled BIM BH3 peptide. The following applies: read-out: Tb-MCL1 Ki, Ki=IC50/(1+[L]/Kd), [L]=8 nM, Kd=10 nM, 60 min incubation at room temperature. From the text:
Terbium labeled Myeloid Cell Leukemia 1 (Mcl-1) homogeneous time-resolved fluorescence (HTRF) binding assay utilizing the BIM BH3 peptide (H2N-(C/Cy5Mal) WIAQELRRIGDEFN-OH) as the binding partner for Mcl-1.
This assay evaluated inhibition of the BH3 domain: Mcl-1 interaction by measuring the displacement of Cy5-labeled BIM BH3 peptide (H2N—(C/Cy5Mal) WIAQELRRIGDEFN-OH) in the HTRF assay format. […]
The TR-FRET signal was read on an BMG PHERAStar FSX MicroPlate Reader at room temperature using the HTRF optic module (HTRF: excitation: 337 nm, light source: laser, emission A: 665 nm, emission B: 620 nm, integration start: 60 μs, integration time: 400 μs).
The BMG PHERAStar FSX MicroPlate Reader was used to measure fluorescence intensity at two emission wavelengths—665 nm and 620 nm—and report relative fluorescence units (RFU) for both emissions, as well as a ratio of the emissions (665 nm/620 nm)*10,000. […]
Representative compounds of the present invention were tested according to the procedure as described above, with results as listed in the Table below (n.d. means not determined).

Amino acid sequences for entries named in this document (tags omitted).
UniProt Q07820, whole entry: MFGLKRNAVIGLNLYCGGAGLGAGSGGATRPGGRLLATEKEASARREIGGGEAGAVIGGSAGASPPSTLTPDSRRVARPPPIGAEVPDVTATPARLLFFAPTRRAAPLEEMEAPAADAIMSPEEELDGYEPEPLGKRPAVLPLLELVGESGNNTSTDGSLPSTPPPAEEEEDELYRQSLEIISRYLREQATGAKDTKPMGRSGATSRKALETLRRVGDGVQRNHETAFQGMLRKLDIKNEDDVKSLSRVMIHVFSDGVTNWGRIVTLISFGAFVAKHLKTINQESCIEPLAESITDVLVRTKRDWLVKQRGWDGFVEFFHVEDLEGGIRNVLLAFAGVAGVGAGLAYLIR

Assay [2] deals with MOLP-8 human multiple myeloma cell line. Nature of the assay: MOLP8 Caspase-Glo 3/7 apoptosis induction assay. The note with it: read-out: MOLP8 Caspase-Glo AC50; MOLP-8 cells, 2 hours at 37° C.; 30 μM highest conc.; averaged over all runs on all batches. An excerpt: MCL-1 is a regulator of apoptosis and is highly over-expressed in tumor cells that escape cell death. The assay evaluates the cellular potency of small-molecule compounds targeting regulators of the apoptosis pathway, primarily MCL-1, Bfl-1, Bcl-2, and other proteins of the Bcl-2 family. Protein-protein inhibitors disrupting the interaction of anti-apoptotic regulators with BH3-domain proteins initiate apoptosis.
The Caspase-Glo® 3/7 Assay is a luminescent assay that measures caspase-3 and -7 activities in purified enzyme preparations or cultures of adherent or suspension cells. The assay provides a proluminescent caspase-3/7 substrate, which contains the tetrapeptide sequence DEVD. This substrate is cleaved to release aminoluciferin, a substrate of luciferase used in the production of light. […]
Cell cultures were maintained between 0.2 and 2.0×10^6 cells/mL. […] The cells were counted and diluted as needed. […]
Compounds were delivered in assay-ready plates (Proxiplate) and stored at −20° C.
Assays always include 1 reference compound plate containing reference compounds. […] The plates were then sealed and measured after 30 minutes.
The activity of a test compound was calculated as percent change in apoptosis induction as follows: […]

Each structure is given as a SMILES string.

As usually defined, the AC50 is the midpoint of the concentration-response curve, whichever way the signal moves. Take `Cn1nc2cc1CSc1cc(c3ccccc3c1)OCCCc1c(C(=O)O)n(C)c3c(c(Cl)ccc13)-c1c(cnn1C)CSC2` (single isomer, unassigned) [Compound 6]: in assay [1], the Ki is 0.00954 µM. Moreover, the AC50 in assay [2] is 10.2 µM.

(Values after patent US20230265105A1, “MACROCYCLIC 7-PYRAZOL-5-YL-INDOLE DERIVATIVES AS INHIBITORS OF MCL-1” (Janssen Pharmaceutica NV, priority 2020, published 2023).)
